Reference: publication PMC4374917, “Identification of Small Molecules that Disrupt Signaling between ABL and Its Positive Regulator RIN1” (PLoS ONE, 2015)

Sequences of proteins named here, by UniProt entry; tags and fusion partners are left off. Residues count along the entry.
UniProt P00519, 1-531 isoform 2 limits assumed: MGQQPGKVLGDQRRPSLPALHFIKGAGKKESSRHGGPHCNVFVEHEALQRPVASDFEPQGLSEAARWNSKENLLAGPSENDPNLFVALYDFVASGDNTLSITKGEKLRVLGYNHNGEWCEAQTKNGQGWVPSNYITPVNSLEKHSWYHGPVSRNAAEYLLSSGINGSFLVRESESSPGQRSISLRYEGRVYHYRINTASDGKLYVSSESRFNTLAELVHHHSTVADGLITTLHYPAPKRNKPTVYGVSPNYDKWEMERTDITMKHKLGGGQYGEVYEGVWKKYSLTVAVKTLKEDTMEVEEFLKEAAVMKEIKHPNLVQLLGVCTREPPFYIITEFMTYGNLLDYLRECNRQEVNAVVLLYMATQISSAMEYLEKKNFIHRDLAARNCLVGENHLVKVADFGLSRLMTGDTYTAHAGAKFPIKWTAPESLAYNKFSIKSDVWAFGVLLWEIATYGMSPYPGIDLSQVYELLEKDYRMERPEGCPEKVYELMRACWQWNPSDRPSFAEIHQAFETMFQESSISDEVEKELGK
UniProt Q13671, whole entry: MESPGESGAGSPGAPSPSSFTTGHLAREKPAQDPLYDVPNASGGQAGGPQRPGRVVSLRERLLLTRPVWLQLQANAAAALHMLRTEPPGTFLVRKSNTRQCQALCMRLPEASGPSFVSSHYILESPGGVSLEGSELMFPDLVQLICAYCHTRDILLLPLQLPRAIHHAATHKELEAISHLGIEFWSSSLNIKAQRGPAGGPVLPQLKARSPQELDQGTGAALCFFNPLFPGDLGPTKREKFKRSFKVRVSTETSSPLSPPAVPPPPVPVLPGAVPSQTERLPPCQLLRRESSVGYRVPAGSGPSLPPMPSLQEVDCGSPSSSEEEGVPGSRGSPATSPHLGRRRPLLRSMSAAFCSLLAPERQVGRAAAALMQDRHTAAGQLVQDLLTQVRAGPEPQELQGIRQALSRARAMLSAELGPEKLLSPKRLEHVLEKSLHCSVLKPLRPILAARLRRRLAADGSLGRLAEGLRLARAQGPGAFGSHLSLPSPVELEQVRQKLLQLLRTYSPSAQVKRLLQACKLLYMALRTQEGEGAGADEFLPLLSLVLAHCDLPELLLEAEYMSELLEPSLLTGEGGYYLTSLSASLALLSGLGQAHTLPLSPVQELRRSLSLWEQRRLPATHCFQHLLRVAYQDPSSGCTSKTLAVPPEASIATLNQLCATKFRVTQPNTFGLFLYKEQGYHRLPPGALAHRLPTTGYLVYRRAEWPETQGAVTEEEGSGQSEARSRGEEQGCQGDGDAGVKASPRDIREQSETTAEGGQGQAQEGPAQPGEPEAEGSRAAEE

Target: RIN1::ABL1 interaction (RIN1-SBP / ABL1-eGFP) (Homo sapiens, UniProt P00519+Q13671)
Assay: TR-FRET assay of RIN1::ABL binding
Details: for IC50: read-out: IC50 (M) in TR-FRET assay, 21 hits selected for cell-based assay, concentration-response curves in triplicate
[1] = S2 Table, TR-FRET assay, maximal inhibition
[2] = S4 Table, N-acyl piperidine-4-carboxamide series SAR, RIN1-ABL dose-response curve

SMILES | Max response (%) [1] [%] | Max response (%) [2] [%] | IC50 (S2 Table) [M]
Cc1c(C(=O)NCCN2CCOCC2)oc2ccc(Br)cc12 | 70.7009 | – | –
O=C(Cc1ccc(NC(=O)C2CCN(C(=O)C3CCCCC3)CC2)cc1)Nc1ccc(C(=O)N2CCOCC2)cc1 | – | 82.92 | –
O=C(Cc1ccc(NC(=O)C2CCN(C(=O)c3ccccc3)CC2)cc1)Nc1ccc(C(=O)N2CCOCC2)cc1 | – | 81.29 | –
CSc1ccccc1OCc1cc(C(=O)N2CCNC(=O)C2)no1 | 86.5374 | – | 5.94e-06
O=C(c1cc(COc2cccc3cccnc23)on1)N1CCC[C@H]1CO | 52.2034 | – | 3.02e-07
CN(C(=O)c1ccc(NC(=O)Cc2ccc(NC(=O)C3CCN(C(=O)C4CC4)CC3)cc2)cc1)C1CC1 | – | 82.72 | –
CN(CCc1ccccc1)C(=O)c1ccc(NC(=O)Cc2ccc(NC(=O)C3CCN(C(=O)c4ccccc4)CC3)cc2)cc1 | – | 83.49 | –
CCN(CC(=O)Nc1ccc(NC(C)=O)cc1)C(=O)c1ccccc1SCc1c(C)noc1C | 78.5939 | – | –
CCOC(=O)N1CCC(NC(=O)CCc2nc(C3=CCN(C)CC3)no2)CC1 | 81.367 | 84.52 | 9.41e-06
O=C(Cc1ccc(NC(=O)C2CCN(C(=O)C3CCCC3)CC2)cc1)Nc1ccc(C(=O)N2CCOCC2)cc1 | – | 86.36 | –
CN(CCc1ccccc1)C(=O)c1ccc(NC(=O)Cc2ccc(NC(=O)C3CCN(C(=O)C4CCCC4)CC3)cc2)cc1 | – | 87.13 | –
N#Cc1ccccc1Sc1ccccc1C(=O)NCC(c1ccco1)N1CCCC1 (centres unmarked) | 75.6258 | – | 4.08e-06
Cc1c(C(=O)NCC(c2ccco2)N(C)C)oc2c(Cl)cccc12 (centres unmarked) | 77.5362 | – | 4.68e-06

Continued, values first:

Max response (%) [1] [%] | Max response (%) [2] [%] | IC50 (S2 Table) [M] | SMILES
100.163 | – | 1.61e-08 | O=c1cc(OCc2ccccc2)cc[nH]1
73.3989 | – | 5.19e-06 | COc1ccc2oc(C(=O)NCC(c3ccco3)N(C)C)c(C)c2c1 (centres unmarked)
88.0885 | – | 4.01e-06 | COc1ccc(CCNc2cc(=O)[nH]c(N)n2)cc1
80.8242 | 82.17 | 2.17e-06 | CC(=O)Nc1ccc(NC(=O)C2CCN(C(=O)c3cccs3)CC2)cc1
103.208 | – | 4.31e-06 | Cn1c(=O)c2c(nc(-n3ccnc3)n2Cc2ccc(Cl)cc2Cl)n(C)c1=O
75.8616 | – | 3.77e-06 | CN(Cc1c(F)cccc1Cl)C(=O)CNC(=O)c1ccc2c(c1)OCO2
72.5318 | – | – | COc1ccc(Cl)cc1NC(=O)CN(C)C(=O)c1cc(-c2ccncc2)nc2ccccc12
63.6586 | – | 1.11e-05 | CCOC(=O)N1CCN(C(=O)Nc2ccc(NC(=O)N3CCN(C(=O)OCC)CC3)cc2)CC1
